Measured values from patent publication US10245267B2 (dated 2019).
pIC50: −log10 of the molar value.

By UniProt entry, the sequences of proteins in these tests, tags left out.
UniProt P04049, whole entry Y340E/Y341E: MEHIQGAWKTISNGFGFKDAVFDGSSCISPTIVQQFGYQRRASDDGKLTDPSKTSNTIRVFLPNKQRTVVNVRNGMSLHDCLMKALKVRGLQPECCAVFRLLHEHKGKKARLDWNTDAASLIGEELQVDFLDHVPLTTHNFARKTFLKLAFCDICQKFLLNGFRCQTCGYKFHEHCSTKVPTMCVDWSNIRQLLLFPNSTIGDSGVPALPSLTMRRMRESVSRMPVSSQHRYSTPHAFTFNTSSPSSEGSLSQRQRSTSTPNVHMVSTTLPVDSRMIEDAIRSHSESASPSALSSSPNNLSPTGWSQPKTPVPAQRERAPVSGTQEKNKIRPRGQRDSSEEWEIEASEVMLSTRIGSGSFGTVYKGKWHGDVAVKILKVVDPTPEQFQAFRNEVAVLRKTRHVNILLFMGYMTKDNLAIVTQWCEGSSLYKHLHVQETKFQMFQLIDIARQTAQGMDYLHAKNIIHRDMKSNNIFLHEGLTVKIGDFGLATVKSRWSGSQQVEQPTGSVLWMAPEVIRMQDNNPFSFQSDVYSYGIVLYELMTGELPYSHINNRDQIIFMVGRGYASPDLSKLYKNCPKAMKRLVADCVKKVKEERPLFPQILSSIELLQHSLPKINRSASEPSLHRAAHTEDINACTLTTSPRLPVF

Target: C-Raf FL (full-length C-Raf protein) (Homo sapiens (Human), UniProt P04049, Y340E/Y341E)
Format: biochemical

`Cc1ccc(NC(=O)c2ccnc(S(C)(=O)=O)c2)cc1-c1cc2[nH]cnc2c(N2CCOCC2)n1` [Example 821, N-(4-methyl-3-(4-morpholino-1H-imidazo[4,5-c]pyridin-6-yl)phenyl)-2-(methylsulfonyl)isonicotinamide] gave a pIC50 of 9.40.
